These results are taken from the Human Domainome abundance scans (Beltran et al. 2025).

First the molecules themselves.
B1: Tyrosine-protein kinase ABL1, residues 64 to 120; numbered along this chain, P00519 (parent)
chain: NLFVALYDFVASGDNTLSITKGEKLRVLGYNHNGEWCEAQTKNGQGWVPSNYITPVN

± gives the uncertainty stated by the source.

Variants of B1 are the subject of the data set. The data set is described as follows: abundance fitness (aPCA) (normalised: wild type 0, dead -1); higher = more abundant; growth selection in yeast, the domain comes from the species named. Particulars: Homo sapiens.
As to NLFVALYDFVASGDNTLSITKGEKLRVLGYNHNGLWCEAQTKNGQGWVPSNYITPVN [E35L], the abundance fitness is -0.101 ± 0.095.
On to NLFVALYDFVASGDNTLSITKGEKLRVLGYNHNGPWCEAQTKNGQGWVPSNYITPVN [E35P], for which the abundance fitness was -0.182 ± 0.091.
With NLFVALYDFVASGDNTLSITKGEKLRVLGYNHNGIWCEAQTKNGQGWVPSNYITPVN [E35I], the abundance fitness turned out to be 0.327 ± 0.14.
In the case of NLFVALYDFVASGDNTLSITKGEKLRVLGYNHNGVWCEAQTKNGQGWVPSNYITPVN [E35V], the abundance fitness was -0.207 ± 0.047.
With NLFVALYDFVASGDNTLSITKGEKLRVLGYNHNGQWCEAQTKNGQGWVPSNYITPVN [E35Q], the abundance fitness was -0.034 ± 0.084.
Take NLFVALYDFVASGDNTLSITKGEKLRVLGYNHNGMWCEAQTKNGQGWVPSNYITPVN [E35M]: the abundance fitness was -0.256 ± 0.12.
NLFVALYDFVASGDNTLSITKGEKLRVLGYNHNGKWCEAQTKNGQGWVPSNYITPVN [E35K]: the abundance fitness was -0.013 ± 0.078.
On to NLFVALYDFVASGDNTLSITKGEKLRVLGYNHNGHWCEAQTKNGQGWVPSNYITPVN [E35H], for which the abundance fitness is -0.502 ± 0.28.
NLFVALYDFVASGDNTLSITKGEKLRVLGYNHNGYWCEAQTKNGQGWVPSNYITPVN [E35Y]: the abundance fitness was -0.516 ± 0.25.
Regarding NLFVALYDFVASGDNTLSITKGEKLRVLGYNHNGNWCEAQTKNGQGWVPSNYITPVN [E35N], the abundance fitness is -0.496 ± 0.31.
Consider NLFVALYDFVASGDNTLSITKGEKLRVLGYNHNGAWCEAQTKNGQGWVPSNYITPVN [E35A], for which the abundance fitness was -0.191 ± 0.096.
As to NLFVALYDFVASGDNTLSITKGEKLRVLGYNHNGGWCEAQTKNGQGWVPSNYITPVN [E35G], the abundance fitness was -0.098 ± 0.073.
Take NLFVALYDFVASGDNTLSITKGEKLRVLGYNHNGTWCEAQTKNGQGWVPSNYITPVN [E35T]: the abundance fitness is -0.113 ± 0.1.
For NLFVALYDFVASGDNTLSITKGEKLRVLGYNHNGRWCEAQTKNGQGWVPSNYITPVN [E35R], the abundance fitness was -0.117 ± 0.077.
Consider NLFVALYDFVASGDNTLSITKGEKLRVLGYNHNGEWCGAQTKNGQGWVPSNYITPVN [E38G], for which the abundance fitness is -0.411 ± 0.067.
For the variant NLFVALYDFVASGDNTLSITKGEKLRVLGYNHNGEWCDAQTKNGQGWVPSNYITPVN [E38D], the abundance fitness came to 0.125 ± 0.11.
To NLFVALYDFVASGDNTLSITKGEKLRVLGYNHNGEWCYAQTKNGQGWVPSNYITPVN [E38Y] belongs -0.334 ± 0.15; to NLFVALYDFVASGDNTLSITKGEKLRVLGYNHNGEWCFAQTKNGQGWVPSNYITPVN [E38F], -0.16 ± 0.086; to NLFVALYDFVASGDNTLSITKGEKLRVLGYNHNGEWCSAQTKNGQGWVPSNYITPVN [E38S], -0.058 ± 0.081.
As for NLFVALYDFVASGDNTLSITKGEKLRVLGYNHNGEWCRAQTKNGQGWVPSNYITPVN [E38R], the abundance fitness was -0.233 ± 0.077.
Turning to NLFVALYDFVASGDNTLSITKGEKLRVLGYNHNGEWCIAQTKNGQGWVPSNYITPVN [E38I], the abundance fitness was -0.266 ± 0.11.
Regarding NLFVALYDFVASGDNTLSITKGEKLRVLGYNHNGEWCLAQTKNGQGWVPSNYITPVN [E38L], the abundance fitness is -0.208 ± 0.094.
Turning to NLFVALYDFVASGDNTLSITKGEKLRVLGYNHNGEWCCAQTKNGQGWVPSNYITPVN [E38C], the abundance fitness was -0.286 ± 0.12.
For the variant NLFVALYDFVASGDNTLSITKGEKLRVLGYNHNGEWCAAQTKNGQGWVPSNYITPVN [E38A], the abundance fitness was -0.427 ± 0.082.
Regarding NLFVALYDFVASGDNTLSITKGEKLRVLGYNHNGEWCTAQTKNGQGWVPSNYITPVN [E38T], the abundance fitness was -0.194 ± 0.078.
To NLFVALYDFVASGDNTLSITKGEKLRVLGYNHNGEWCMAQTKNGQGWVPSNYITPVN [E38M] belongs -0.126 ± 0.062.
With NLFVALYDFVASGDNTLSITKGEKLRVLGYNHNGEWCKAQTKNGQGWVPSNYITPVN [E38K], the abundance fitness was found to be 0.097 ± 0.092.
On to NLFVALYDFVASGDNTLSITKGEKLRVLGYNHNGEWCHAQTKNGQGWVPSNYITPVN [E38H], for which the abundance fitness is -0.116 ± 0.11.
Regarding NLFVALYDFVASGDNTLSITKGEKLRVLGYNHNGEWCWAQTKNGQGWVPSNYITPVN [E38W], the abundance fitness is -0.5 ± 0.14.
For the variant NLFVALYDFVASGDNTLSITKGEKLRVLGYNHNGEWCVAQTKNGQGWVPSNYITPVN [E38V], the abundance fitness is -0.21 ± 0.059.
On to NLFVALYDFVASGDNTLSITKGEKLRVLGYNHNGEWCNAQTKNGQGWVPSNYITPVN [E38N], for which the abundance fitness was -0.147 ± 0.14.
Turning to NLFVALYDFVASGDNTLSITKGEKLRVLGYNHNGEWCQAQTKNGQGWVPSNYITPVN [E38Q], the abundance fitness is -0.291 ± 0.17.
In the case of NLFVALYDFVASGDNTLSITKGEKLRVLGYNHNGEWCEFQTKNGQGWVPSNYITPVN [A39F], the abundance fitness is -0.494 ± 0.3.
In the case of NLFVALYDFVASGDNTLSITKGEKLRVLGYNHNGEWCEGQTKNGQGWVPSNYITPVN [A39G], the abundance fitness came to 0.027 ± 0.076.
Next, NLFVALYDFVASGDNTLSITKGEKLRVLGYNHNGEWCELQTKNGQGWVPSNYITPVN [A39L]: -0.11 ± 0.11.
Consider NLFVALYDFVASGDNTLSITKGEKLRVLGYNHNGEWCECQTKNGQGWVPSNYITPVN [A39C], for which the abundance fitness was -0.435 ± 0.32.
In the case of NLFVALYDFVASGDNTLSITKGEKLRVLGYNHNGEWCETQTKNGQGWVPSNYITPVN [A39T], the abundance fitness was -0.003 ± 0.13.
To NLFVALYDFVASGDNTLSITKGEKLRVLGYNHNGEWCESQTKNGQGWVPSNYITPVN [A39S] belongs -0.28 ± 0.093; to NLFVALYDFVASGDNTLSITKGEKLRVLGYNHNGEWCEWQTKNGQGWVPSNYITPVN [A39W], -0.83 ± 0.21.
For NLFVALYDFVASGDNTLSITKGEKLRVLGYNHNGEWCEIQTKNGQGWVPSNYITPVN [A39I], the abundance fitness was -0.243 ± 0.19.
In the case of NLFVALYDFVASGDNTLSITKGEKLRVLGYNHNGEWCEVQTKNGQGWVPSNYITPVN [A39V], the abundance fitness stood at 0.024 ± 0.098.
Next, NLFVALYDFVASGDNTLSITKGEKLRVLGYNHNGEWCEQQTKNGQGWVPSNYITPVN [A39Q]: -1.1 ± 0.17; NLFVALYDFVASGDNTLSITKGEKLRVLGYNHNGEWCEMQTKNGQGWVPSNYITPVN [A39M]: -0.402 ± 0.073.
As to NLFVALYDFVASGDNTLSITKGEKLRVLGYNHNGEWCERQTKNGQGWVPSNYITPVN [A39R], the abundance fitness is -0.875 ± 0.1.
For NLFVALYDFVASGDNTLSITKGEKLRVLGYNHNGEWYEAQTKNGQGWVPSNYITPVN [C37Y], the abundance fitness was -0.041 ± 0.098.
NLFVALYDFVASGDNTLSITKGEKLRVLGYNHNGETCEAQTKNGQGWVPSNYITPVN [W36T]: the abundance fitness was -0.515 ± 0.12.
